As a reminder, the Ki is a dissociation constant, usually derived from enzyme kinetics or from competition with a known ligand.

Ki data for one compound are collected here from ChEMBL document CHEMBL1250454, “Oral oxytocin antagonists” (J Med Chem, 2010).

The experiment addresses T1, Oxytocin receptor (Rattus norvegicus, UniProt P70536).
T1 sequence (P70536 whole entry): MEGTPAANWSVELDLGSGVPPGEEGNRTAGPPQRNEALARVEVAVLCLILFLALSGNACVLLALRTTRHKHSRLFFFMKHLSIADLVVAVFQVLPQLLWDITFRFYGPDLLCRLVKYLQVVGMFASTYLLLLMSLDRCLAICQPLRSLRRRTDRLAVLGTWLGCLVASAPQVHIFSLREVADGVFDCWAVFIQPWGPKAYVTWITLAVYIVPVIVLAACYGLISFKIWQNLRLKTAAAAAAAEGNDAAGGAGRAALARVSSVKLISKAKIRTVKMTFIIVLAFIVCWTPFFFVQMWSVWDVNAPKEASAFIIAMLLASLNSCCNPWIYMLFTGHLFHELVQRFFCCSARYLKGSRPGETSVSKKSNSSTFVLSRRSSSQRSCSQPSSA
Briefly: Displacement of [3H]-oxytocin from oxytocin receptor in rat uterus tissue. It is filed as tissue-based. In general terms: Loss of bound radioactivity is the signal in a displacement assay; it reports binding, not function.

The structures appear in SMILES notation.

For `Cc1ccc(S(=O)(=O)N2CCC3(C=Cc4ccccc43)CC2)cc1`, the inhibition constant (Ki) stood at 1600 nM.
